From patent US20240150294A1, “ESTROGEN RECEPTOR ALPHA ANTAGONISTS AND USES THEREOF” (The University of Chicago, priority 2021, published 2024)

Chains of the proteins cited; added tags and fusions are not shown.
UniProt P03372, whole entry: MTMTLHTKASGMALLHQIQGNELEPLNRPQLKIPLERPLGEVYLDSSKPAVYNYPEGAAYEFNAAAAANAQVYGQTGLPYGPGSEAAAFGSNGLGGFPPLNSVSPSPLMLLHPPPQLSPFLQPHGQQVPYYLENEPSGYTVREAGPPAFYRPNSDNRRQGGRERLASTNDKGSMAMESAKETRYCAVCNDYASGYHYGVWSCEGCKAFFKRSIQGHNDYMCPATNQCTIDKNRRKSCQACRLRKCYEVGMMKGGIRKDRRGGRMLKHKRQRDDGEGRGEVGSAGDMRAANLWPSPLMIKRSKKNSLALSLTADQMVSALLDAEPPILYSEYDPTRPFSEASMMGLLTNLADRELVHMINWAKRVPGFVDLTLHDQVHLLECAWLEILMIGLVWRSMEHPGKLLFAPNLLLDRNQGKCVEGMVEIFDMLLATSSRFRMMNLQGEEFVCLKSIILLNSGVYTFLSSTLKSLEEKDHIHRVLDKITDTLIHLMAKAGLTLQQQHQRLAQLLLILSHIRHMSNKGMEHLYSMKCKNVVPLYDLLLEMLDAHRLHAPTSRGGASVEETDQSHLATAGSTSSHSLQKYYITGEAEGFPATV

Biological target: ERα (Homo sapiens, UniProt P03372)
Assay: Transcriptional reporter gene assay (estrogen response element-GFP) in MCF7 cells
Format: cell-based
Conditions: ERE-controlled green fluorescent protein, reduction in fluorescence

IC50 [nM]	SMILES
73.7	C[C@H]1CCCN1CCOc1ccc(C2c3ccc(O)cc3CC3(CC3)N2C(=O)c2ccccc2)cc1 (some centres unmarked)
13.5	C[C@@H]1CCCN1CCOc1ccc(C2c3ccc(O)cc3CC3(CC3)N2C(=O)c2ccccc2)cc1 (some centres unmarked)
